# Experimental data reported in patent US5510355A, “Depolarizing skeletal muscle relaxants” (priority 1994, dated 1996).
# System: ganglionic-type neuronal nicotinic receptors (rat pheochromocytoma clonal line PC12)
# Type: cell-based
# Conditions: read-out: RAT GANGLIA EC50 (concentration resulting in half maximal activation of specific ion flux), PC12, 86Rb+ efflux, 4 minutes at 20° C.
# Experimental: The selectivity at muscle nicotinic receptors of the various analogs described in this invention was determined by their functional efficacies and potencies at muscle and ganglionic sites.
# Ganglionic effects were established on the rat pheochromocytoma clonal line PC12 which is a continuous clonal cell line of neural crest origin derived from a tumor of the rat adrenal medulla expressing ganglionic-type neuronal nicotinic receptors. […] Discussion concerning the heterogeneity of nicotinic receptors subtypes is set forth in Lukas et al., Internatl. […] Acetylcholine nicotinic receptors expressed in rat ganglia share a very high degree of homology with their human counterparts. See, Fornasari et al., Neurosci.
# Intact cells on dishes were used for functional studies.
# The medium was removed and ^86 Rb^+ was quantitated using Cerenkov detection. […] Specific ion efflux was determined as the difference in isotope efflux between total and non-specific efflux samples. Dose-response curves were plotted and the concentration resulting in half maximal activation of specific ion flux through nicotinic receptors determined for human muscle and rat ganglionic preparations (EC50).
smiles,measurement,value
"CC(=O)OCC[N+](C)(C)C [C-1, acetylcholine, reference compound]",EC50,40 µM
